# Test results: patent US10065948B2, “Histone deacetylase inhibitors and compositions and methods of use thereof” (CHDI Foundation, Inc., priority 2014, dated 2018)
# Amino acid sequences for entries named in this document (tags omitted). Residues count along the entry.
# UniProt P56524, 648-1032: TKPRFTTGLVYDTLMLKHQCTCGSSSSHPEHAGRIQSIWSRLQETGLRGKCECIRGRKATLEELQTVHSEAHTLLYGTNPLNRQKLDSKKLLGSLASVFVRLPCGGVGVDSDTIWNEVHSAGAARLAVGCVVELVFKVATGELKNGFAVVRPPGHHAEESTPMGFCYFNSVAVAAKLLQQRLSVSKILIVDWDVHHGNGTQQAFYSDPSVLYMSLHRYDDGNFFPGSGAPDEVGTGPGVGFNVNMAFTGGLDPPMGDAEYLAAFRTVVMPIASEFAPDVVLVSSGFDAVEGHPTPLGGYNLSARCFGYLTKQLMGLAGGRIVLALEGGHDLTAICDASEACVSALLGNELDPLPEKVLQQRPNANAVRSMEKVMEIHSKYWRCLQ
# Tests used:
# [1] = biological target: Histone Deacetylase 4 (HDAC4) catalytic domain (Homo sapiens (Human), UniProt P56524); experiment: Biochemical HDAC inhibition assay, fluorogenic substrate Boc-Lys(Tfa)-AMC
# Experimental: The potency of compounds is quantified by measuring the Histone Deacetylase 4 (HDAC4) catalytic domain enzymatic activity using the fluorogenic substrate, Boc-Lys(Tfa)-AMC. The substrate is deacetylated to Boc-Lys-AMC by HDAC4. Cleavage by trypsin results in the release of the fluorophore AMC from the deacetylated substrate. The fluorescence of the sample is directly related to the histone deacetylase activity in the sample.
# Stocks of 60 μL aliquots of the 10 mM compound in DMSO are prepared and stored at −20° C. From one stock aliquot of each compound to be tested and the reference compound, a 16-point serial dilution is prepared according to Table 1 using a 125 μL 16-channel Matrix multi-channel pipette (Matrix Technologies Ltd).
# 2 μL (200×) of each diluted solution and each control (full activity: 100% DMSO alone or full inhibition 1 mM) is stamped into V-bottomed polypropylene 384-well compound plates using either the Bravo (384-well head from Agilent) or 12.5 μL 16-channel Matrix multi-channel pipette (Matrix Technologies Ltd). Each well with the 200× compound solution is diluted 1:20 by the addition of 38 μL assay buffer+DMSO (10.5% DMSO, 45 mM Tris-HCl, 123 mM NaCl, 2.4 mM KCl, and 0.9 mM MgCl2 at pH 8.0 and equilibrated to room temperature).
# The HDAC4 catalytic domain enzyme is human catalytic domain HDAC4 protein (amino acids 648-1032) with a C-terminal 6× histidine tag, produced by BioFocus. A working solution of enzyme is prepared from a 500 μg/mL stock aliquot of HDAC4 catalytic domain (thawed on ice) diluted to 0.2 μg/mL with assay buffer (50 mM Tris-HCl, 137 mM NaCl, 2.7 mM KCl, and 1 mM MgCl2 at pH 8 and equilibrated to room temperature) just prior to the addition of the enzyme to the assay.
# 5× (50 μM) substrate is prepared just prior to the addition to the assay. A 1 mM substrate stock is made by diluting a 100 mM Boc-Lys(Tfa)-AMC in DMSO solution 1:100 by adding it drop-wise to assay buffer (equilibrated to room temperature) while vortexing at slow speed to prevent precipitation. The 5× substrate is prepared by diluting the 1 mM substrate solution 1:20 by adding it drop-wise to assay buffer (equilibrated to room temperature) while vortexing at slow speed to prevent precipitation.
# 3× (30 μM) Developer/Stop Solution is prepared just prior to addition to the plate by diluting a stock solution of 10 mM reference compound 1:333 in 25 mg/mL trypsin (PAA Laboratories Ltd.) equilibrated to room temperature.
# 5 μL of each solution of 1:20 diluted compound from above is transferred to a clear bottomed, black, 384-well assay plate using the Bravo or the Janus (384-well MDT head from Perkin Elmer). Using a 16-channel Matrix multi-channel pipette, 35 μL of the working solution of HDAC4 catalytic domain enzyme (0.2 μg/mL in assay buffer) is transferred to the assay plate. […] The assay plate is then shaken for two minutes on an orbital shaker at 900 rpm (rotations per minute). Next the plate is incubated for 15 minutes at 37° C. The reaction is stopped by adding 25 μL of 3× (30 μM) developer/stop solution to the assay plates using either the Bravo, Janus or a 16-channel Matrix multi-channel pipette. Assay plates are then shaken for 5 minutes on an orbital shaker at 1200 rpm. Next, the assay plates are incubated at 37° C. for 1 hour in a tissue culture incubator. Finally, the fluorescence is measured (Excitation: 355 nm, Emission: 460 nm) using PerkinElmer EnVision in top read mode.
# [2] = system: cellular histone deacetylase enzymatic activity in Jurkat E6-1 cells; experiment: Inhibition of cellular HDAC activity, Boc-Lys(Tfa)-AMC substrate (Cell Lys-TFA); format: cell-based
# Experimental: The potency of the compounds is quantified by measuring the cellular histone deacetylase enzymatic activity using the fluorogenic substrate, Boc-Lys(Tfa)-AMC. After penetration in Jurkat E6-1 cells, the substrate is deacetylated to Boc-Lys-AMC. After cell lysis and cleavage by trypsin, the fluorophore AMC is released from the deacetylated substrate only. The fluorescence of the sample is directly related to the histone deacetylase activity in the sample.
# Jurkat E6.1 cells are cultured according to standard cell culture protocols in Jurkat E6.1 Growth Media (RPMI without phenol red, 10% FBS, 10 mM HEPES, and 1 mM Sodium Pyruvate). Jurkat E6.1 cells are counted using a Coulter Counter and resuspended in Jurkat E6.1 growth media at a concentration of 75,000 cells/35 μL. 35 μL or 75,000 cells is seeded into Greiner microtitre assay plates. The plates are then incubated at 37° C. and 5% CO2 while other assay components are being prepared. […]
# 5 μL of each solution of 1:20 diluted compound from above is transferred to the Greiner microtitre assay plates with 75,000 cells/well using the Bravo. […] Finally the top read fluorescence (Excitation: 355 nm, Emission: 460 nm) is measured using PerkinElmer EnVision.
smiles,measurement,setting,value
"Cc1c(F)cccc1C1(C(=O)NO)Cc2nc(-c3cccc(F)c3)sc2C1 (single isomer, unassigned) [Example 65, E2-(abs)-5-(3-fluoro-2-methylphenyl)-2-(3-fluorophenyl)-N-hydroxy-5,6-dihydro-4H-cyclopenta[d]thiazole-5-carboxamide]",IC50,[1],530 nM
same,IC50,[2],220 nM
